Article PMC10247366

Biological target: HA–FAM134B 17KR (UniProt Q9H6L5)
Experiment: co-IP; HA–FAM134B IP (HA-agarose beads, overnight at 4 °C) from HEK 293T lysate (50 mM Tris-HCl pH 7.5, 150 mM NaCl, 0.5 mM EDTA, 1% Triton X-100, NEM), cells co-transfected with Myc–Ub; immunoblot for endogenous LC3B-II, densitometry

## LC3B-II (from UniProt Q9GZQ8 1-120) (natural protein)
  fold reduction of bound LC3B-II against HA–FAM134B WT: 1.32 fold
